The values that follow come from article PMC5267519, “Evaluation of a Novel Renewable Hepatic Cell Model for Prediction of Clinical CYP3A4 Induction Using a Correlation-Based Relative Induction Score Approach” (Drug Metabolism and Disposition, 2017).

Data set [1] has as its system CYP3A4 mRNA.
The test system of data set [2] is CYP3A4.

With `COc1cc(NC(C)CCCN)c2ncccc2c1` (centres unmarked) [Primaquine], the “CYP3A4 mRNA expression induction response (in words)” value in data set [1] was “no induction response”. Further, the “CYP3A4 enzyme activity induction response (in words)” value in data set [2] is “no induction response”.
